The subject of the data set is stationary phase B. burgdorferi.

In the case of Aluminum lactate, the “Residual viable cells (SYBR/PI)” value is 49%.

These data come from patent US20190008848A1, “IDENTIFICATION OF ADDITIONAL ANTI-PERSISTER ACTIVITY AGAINST BORRELIA BURGDORFERI FROM AN FDA DRUG LIBRARY” (THE JOHNS HOPKINS UNIVERSITY, priority 2015, published 2019).
